Assay outcomes as filed in PubChem.
The list is not random: actives were taken first. Their share in the collection is about 3.7%.
A549 tox = A549 cytotoxicity, counter-screen for Nrf2 inhibitors; A549 ARE-Fluc cells, CellTiter-Fluor viability, 18-24 h; Potency, µM (top dose mostly 46 µM), for inactives: at the highest dose activity change, negative = cytotoxicity, hits mostly inhibitors; 0.16% of 390,000 active; AID 504648; also: potency is read from the fitted curve at half-maximal effect; % is scaled to controls: 0 for no effect and ±100 for the full control effect
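Cytotoxicity counterscreen: CellTiter-Fluor fluorescence was measured in A549 ARE_Fluc cells after 18-24 h of compound exposure in a concentration series. The subsequent BugLite luminescent read reports ARE-luciferase activity.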
miR-21 reporter = miR-21 reporter, rising signal; Potency, µM (titrated, usually from 38.3 µM), without a hit: at the highest dose reporter change, positive = more light; AID 2288; 340,000 tested, under 10 active; HeLa miR-21 FLuc reporter, luciferase, 48 h; active = well fitted rising curve with a large enough effect; inconclusive = small, poorly fitted or top-dose-only effect; inactive = no such curve, though single readings can be large or run the other way;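 note: % of control where 0% means no effect; miR-21 action dims this reporter so a rising signal means less miR-21 action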
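Using DMEM plus 10% FBS, HeLa miR-21-FLuc cells are incubated with test compounds (final up to about 40uM) for 48 hours; firefly luciferase signal is then imaged following reagent-mediated lysis.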
Nrf2 activator = activators of Nrf2 (ARE) signaling; AREc32 ARE-luciferase reporter (MCF7-derived line), luminescence, 24 h; Potency, µM (titrated, usually from 46.1 µM), without a hit: at the top dose activation, usual class: activators; 0.31% of 410,000 active; AID 624171; also: potency is read from the fitted curve at half-maximal effect; % of control where 0% means no effect; nearly all actives have a fitted effect of over 65% in size
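Cells of the AREc32 ARE-luciferase line are plated in OPTI-MEM containing 5% FBS and left overnight at 37 deg C. Compounds are pinned in, incubation continues 24 hr, and firefly luciferase signal is then measured.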
Nrf2 inh = blocks Nrf2 signaling; AID 504444; A549 ARE-Fluc reporter, luciferase luminescence, 18-24 h; 2.1% of 360,000 active; Potency, µM (top dose mostly 46 µM), for inactives: at the highest dose activity change, negative = inhibition, most hits filed as inhibitors; also: potency is read from the fitted curve at half-maximal effect; % is scaled to controls: 0 for no effect and ±100 for the full control effect; nearly all actives have a fitted effect of over 60% in size
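A549 ARE_Fluc cells (5000/well, 5% FBS OPTI-MEM) pre-incubated 2 h, then treated with compounds 18-24 h at 37C/5% CO2 in concentration-response. CellTiter-Fluor viability read first; BugLite luciferase luminescence after 15 min at room temperature gives Nrf2 activity.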
p53 reactivator = mutant p53 re-activation in reporter cells | Potency, µM (doses to about 92.2 µM), inactives show top-dose activity change, positive = activation, most hits filed as activators | AID 504706 | 0.063% of 320,000 active | H1299 p53-A138V BP100-luciferase reporter, luminescence, 24 h; also: potency is read from the fitted curve at half-maximal effect; % of control where 0% means no effect; nearly all actives have a fitted effect of over 45% in size
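H1299 (p53-null), stable ts p53-A138V + BP100-Luc; 1000 cells/well, Opti-MEM/10% FBS; cpd 4 pt, 1:5; 24 h, 37 deg C, 5% CO2; detection reagent 10 min RT; luminescence.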
ClpP mod = qHTS Assay for Activators of ClpP. ATP-dependent Clp protease proteolytic subunit (Bacillus subtilis (strain 168)), P80244. 1.9% of 340,000 active. Potency, µM (titrated, usually from 57.5 µM), for inactives: at the top dose activity change, negative = active. purified B. subtilis ClpP, FRET peptide cleavage, 20 min; active = well fitted falling curve with a large enough effect; inconclusive = small, poorly fitted or top-dose-only effect; inactive = no such curve, though single readings can be large or run the other way; also: potency is read from the fitted curve at half-maximal effect; the source files actives as falling curves though it sought activators and does not explain the sign; nearly all actives have a fitted effect of over 65% in size
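FRET quenching reversal measured ClpP activation: 10 microg/mL B. subtilis ClpP at pH 8 with the FRET-FV decapeptide, read at 430 nm after 320 nm excitation. The 20-min minus 0-min signal was scaled between DMSO/no-enzyme wells and ADEP (5.8 microM final).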
The depositor's hits bear a star; ? = inconclusive; / = not tested or not shown; [ ] = another dose, or the depositor's remark. Unless noted, calls follow the shape of the dose curve; as a rule, active = well fitted curve in the direction sought with a large enough effect; inconclusive = small, poorly fitted or top-dose-only effect, or another doubt; inactive = no such curve, though single readings can be large; an effect the other way counts as inactive or inconclusive.

Protein sequences, listed by entry. Tags and fused reporters are not part of them.
ATP-dependent Clp protease proteolytic subunit (Bacillus subtilis (strain 168)), P80244, UniProt P80244, whole entry, looked up: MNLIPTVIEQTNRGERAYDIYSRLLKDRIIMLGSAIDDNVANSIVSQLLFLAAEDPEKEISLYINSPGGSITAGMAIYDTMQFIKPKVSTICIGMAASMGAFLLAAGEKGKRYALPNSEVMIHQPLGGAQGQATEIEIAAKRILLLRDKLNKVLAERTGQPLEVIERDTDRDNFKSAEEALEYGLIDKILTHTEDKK

Short keys: A = A549 tox; B = miR-21 reporter; C = Nrf2 activator; D = Nrf2 inh; E = p53 reactivator; F = ClpP mod
Cc1ccc(-c2csc(NC(=O)COC(=O)c3cccc(S(=O)(=O)N4CCOCC4)c3)n2)cc1
  A: -4%	B: -29%	C: 0%	D: ?	E: ?	F: -4%

CCOC(=O)Cc1csc(NC(=O)CCc2ccc(S(=O)(=O)N3CCOCC3)cc2)n1
  A: 1%	B: 0%	C: 1%	D: -12%	E: 6%	F: 1%

NC(Cc1ccc(F)cc1)c1csc(NC(=O)NC(c2ccccc2)c2ccccc2)n1 (stereo not given)
  A: /	B: /	C: -4%	D: /	E: /	F: -1%

CCCCNc1ccc2c(c1)C1CC2CCN1C(=O)OCc1ccccc1 (stereo not given)
  A: 23%	B: /	C: 12%	D: ?	E: /	F: -20%

Cc1ccc(-c2csc(NC(=O)c3cccc(S(=O)(=O)N4CCN(C)CC4)c3)n2)cc1
  A: -6%	B: ?	C: 3%	D: -19%	E: 4%	F: -5%

COc1cccc(C(=O)Nc2nc(-c3ccc(S(=O)(=O)N4CCOCC4)cc3)cs2)c1
  A: -18%	B: 20%	C: 0%	D: 13µM*	E: -28%	F: ?

O=C(Nc1cccnc1)c1sc(Nc2ccccc2F)nc1-c1ccccc1
  A: -15%	B: -2%	C: 0%	D: -20%	E: 2%	F: 18µM*

CC[n+]1ccc(/C=C/c2ccc(N(C)C)cc2)c2ccccc21
  A: 9.2µM*	B: ?	C: -1%	D: 3.7µM*	E: -7%	F: 1%

CC[n+]1c(/C=C/c2ccc(N(C)C)cc2)ccc2ccccc21
  A: 21µM*	B: 27%	C: -1%	D: 8.2µM*	E: 26%	F: 0%

CC[n+]1ccccc1/C=C/c1ccc(N(C)C)cc1
  A: 10µM*	B: ?	C: 2%	D: 5.8µM*	E: -2%	F: 1%

CC[n+]1c(/C=C/c2ccc(OC)c(OC)c2)ccc2ccccc21
  A: -19%	B: -35%	C: 4%	D: ?	E: 2%	F: -20%

CN(C)c1ccc(/C=C/c2cc[n+]([O-])c3ccccc23)cc1
  A: /	B: /	C: /	D: /	E: /	F: 3%

CC[n+]1c(/C=C/c2ccc(OC(C)=O)c(OC)c2)ccc2ccccc21
  A: 21µM*	B: -15%	C: 4%	D: ?	E: -3%	F: -7%

CCCCCC[n+]1ccccc1/C=C/c1ccc(N(C)C)cc1
  A: /	B: /	C: 0%	D: /	E: /	F: 1%

COc1cn(CC(=O)Nc2cc(C)ccc2C)c(CN2CCCCC2)cc1=O
  A: 1%	B: 4%	C: 1%	D: /	E: /	F: -2%

O=C(CC(c1cccs1)N1Cc2ccccc2C1=O)Nc1ccc(Cl)cc1 (stereo not given)
  A: 12%	B: -4%	C: -1%	D: 10%	E: /	F: 4%

Clc1ccc(-c2nnc3ccccn23)cc1
  A: 13%	B: -8%	C: 0%	D: /	E: -7%	F: 28µM*

Cc1nc(N2CCOCC2)c2c(C(=O)N3CCN(c4ccccc4F)CC3)c(C)oc2n1
  A: 7%	B: -7%	C: -1%	D: 10%	E: /	F: -2%

CCOc1ccc(-c2nc(C(N)=O)c3c(n2)n(-c2ccc4c(c2)OCO4)c(=O)n3CC)cc1
  A: 3%	B: -2%	C: 0%	D: 14%	E: /	F: -12%

CCOC(=O)c1noc2ncnc(Nc3cccc(OC)c3)c12
  A: -1%	B: -2%	C: 1%	D: -23%	E: /	F: 0%

COc1ccc(/C=N/NC(=O)c2ccc(N(C)S(=O)(=O)c3ccccc3)cc2)cc1
  A: -16%	B: 2%	C: 4%	D: 26µM*	E: -1%	F: -15%

Cc1ccc(NC(=O)c2ccc(NS(=O)(=O)/C=C/c3ccccc3)cc2)nc1
  A: -7%	B: 1%	C: 2%	D: 21µM*	E: -8%	F: -4%

COc1ccc(NC(=O)COc2ccc(N(C)S(=O)(=O)c3ccc(Cl)cc3)cc2)cc1
  A: -16%	B: /	C: -1%	D: 13µM*	E: -17%	F: 1%

COc1ccc(/C=N/NC(=O)c2ccc(N(C)S(=O)(=O)c3ccccc3)cc2)c(OC)c1
  A: 13%	B: -2%	C: 0%	D: 3%	E: 4%	F: ?

Cc1ccc(S(=O)(=O)N(C)c2ccc(OCC(=O)Nc3nc4ccccc4s3)cc2)cc1
  A: -1%	B: 26%	C: 6%	D: 21µM*	E: -5%	F: 1%

Remaining list, next part
Second line of a record: A549 tox, miR-21 reporter, Nrf2 activator, Nrf2 inh, p53 reactivator, ClpP mod
CCCn1c2ccccc2c2cnn(CC(=O)NCCc3ccc(C)cc3)c(=O)c21
 : 15%, -4%, -1%, ?, /, ?
Cc1ccc(S(=O)(=O)N(C)c2ccc(C(=O)Nc3ccc(C)cn3)cc2)cc1
 : -23%, /, 2%, 12µM*, -2%, /
COc1ccc(CCNC(=O)c2ccc(Cl)c(S(=O)(=O)N(C)c3ccccc3)c2)cc1
 : -24%, 18%, 0%, 18µM*, -3%, -1%
COc1ccc(C(=O)Nc2ccc(S(=O)(=O)N(C)c3ccccc3)cc2)cc1
 : -5%, /, 5%, 21µM*, /, /
COc1ccc(CCNC(=O)c2ccc(N(C)S(=O)(=O)c3ccc(C)cc3)cc2)cc1
 : -7%, -3%, 0%, ?, -5%, 0%
CN1C/C(=C\c2ccc(N3CCOCC3)cc2)C(=O)/C(=C/c2ccc(N3CCOCC3)cc2)C1
 : -11%, 23%, 11µM*, 12%, 6%, -2%
Cc1ccc(C)c(Cn2c(=O)n(CCCCC(=O)NCc3ccccc3Cl)c(=O)c3ccccc32)c1
 : -7%, -8%, 0%, 6%, /, -1%
Cc1cccc(Cn2c(=O)n(CCCC(=O)NCc3ccccc3Cl)c(=O)c3ccccc32)c1
 : -18%, 21%, 0%, 10µM*, /, ?
CCN1/C(=C/C(C)=C/c2sc3ccccc3[n+]2CC)Sc2ccccc21
 : 21µM*, ?, -2%, 8.2µM*, 7%, 1%
O=[N+]([O-])C(/C=C(\Cl)[N+](=O)[O-])=C(N1CCCCC1)N1CCCCC1
 : 23µM*, 0%, 7%[9.22 µM], -17%, -2%, /

Single entries from above.
Nrf2 activator with CCCn1c2ccccc2c2cnn(CC(=O)NCCc3ccc(C)cc3)c(=O)c21 is entered as -1%
A549 tox with Cc1cccc(Cn2c(=O)n(CCCC(=O)NCc3ccccc3Cl)c(=O)c3ccccc32)c1 is entered as -18%

Next entries follow.
Second line of a record: A549 tox, miR-21 reporter, Nrf2 activator, Nrf2 inh, p53 reactivator, ClpP mod
CCOc1ccc(CNS(=O)(=O)c2c(C(=O)N3CCCCCC3)c(C)n(C)c2C)cc1OC
 : -2%, -10%, 0%, 25%, /, -1%
CCN1CCN(c2ccc(S(=O)(=O)N3CCCCC3)cc2NC(=O)CCNC(C)=O)CC1
 : 9%, /, 0%, 21%, /, -1%
Cc1ccc(Cl)cc1N1CCN(Cc2nnc(-c3ccc4c(c3)OCO4)o2)CC1
 : -11%, 3%, 0%, 21µM*, /, ?
Fc1ccccc1N1CCN(Cc2nnc(-c3ccc4c(c3)OCO4)o2)CC1
 : -12%, -2%, -1%, 6%, /, 35µM*
Clc1ccc(N2CCN(Cc3nnc(-c4ccc5c(c4)OCO5)o3)CC2)cc1
 : -5%, -2%, -1%, 12%, /, -11%
Cc1ccc(F)c(S(=O)(=O)NC(=O)C2(C)CCN2C(=O)c2sccc2C)c1 (stereo not given)
 : /, /, -1%, /, /, -2%
CCOc1ccc(C(=O)n2cnnc2N)cc1
 : 1%, 2%, 0%, 13µM*, 5%, /
COc1ccc(C(=O)n2cnnc2N)cc1
 : 7%, -7%, -1%, ?, 13%, -1%

Printed as active in ClpP mod, of those listed so far:
compound	miR-21 reporter	Nrf2 activator	p53 reactivator	ClpP mod
O=C(Nc1cccnc1)c1sc(Nc2ccccc2F)nc1-c1ccccc1	-2%	0%	2%	18µM*
Clc1ccc(-c2nnc3ccccn23)cc1	-8%	0%	-7%	28µM*
Fc1ccccc1N1CCN(Cc2nnc(-c3ccc4c(c3)OCO4)o2)CC1	-2%	-1%	/	35µM*
